# Experimental data taken from patent publication US10309966B2, “Personalized therapy of inflammation-associated cancer using methods of assessing the susceptibility of a subject to the treatment with EGFR inhibitors/antagonists” (Medizinische Universität Wien, priority 2014, dated 2019).
# What was measured:
# [1] = test system: IL-6 secretion by isolated Kupffer cells; assay: IL-1β-induced IL-6 production/secretion by isolated Kupffer cells (ELISA, qRT-PCR); format: cell-based, mouse; conditions: preincubation with increasing amounts of inhibitor (BIBW2992 0.005-20 μM, cetuximab 0.01-1 μg/ml); IL-1β 10 ng/ml; FIGS. 9A, 9B
# Protocol: ELISA for IL-6, IL17A, IL22, IL23 (eBioscience), amphiregulin (R&D Systems), CCL2, IL-1β and IL-1α (BD Biosciences-Pharmigen) were performed following the manufacturer's instructions. MTT assay (EZ4U, Biomedica) was performed to quantify the number of viable Kupffer cells in the wells. The cytokine value was normalized to the number of viable Kupffer cells.
# Hepatocytes were plated onto collagen pre-coated cell culture dishes and cultured in HepatoZyme-SFM (Gibco) supplemented with 2 mM glutamine and 1% penicillin-streptomycin (P/S). Hepatocytes were either treated with the indicated amounts of DEN for 24 hours or with 10 ng/ml TNFα (eBioscience) in the presence of cycloheximide (100 μg/ml, Sigma) for 12 hours to study the hepatoprotective role of EGFR. […] Since the number of Kupffer cells which can be recovered from one mouse is very low, it was technically impossible to perform Western Blot analysis for all indicated signaling molecules on one single batch of Kupffer cells. Usually Kupffer cells from 2 livers of the same genotype were pooled together to obtain around 20-30 μg of protein lysate.
# [2] = test system: advanced stage HCC patients; conditions: cited from earlier work
substance,measurement,setting,value
cetuximab: EGFR-inhibiting antibody,IL-6 production in Kupffer cells (IL-1β-induced IL-6 secretion),[1],prevented
same,clinical results in advanced stage HCC patients,[2],disappointing clinical results
